High-throughput results: PubChem BioAssay, several laboratories
PDI inh: inhibitors of human protein disulfide isomerase. PDI insulin aggregation turbidity, A650, 90 min. inhibition, % at 10 µM. AID 588391. P07237. actives 0.052% (n = 350,000);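 active = mean inhibition across replicates of 30% or more, whatever share of single replicates reach that level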
Yeast UUG start: modulators of start codon recognition fidelity in yeast. S. cerevisiae UUG-firefly luciferase reporter, luminescence/redox ratio. activity score, % at 18.7 µM. 0.13% of 350,000 active. AID 602363;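 active = replicate mean at a twofold rise or more, about +100% in these data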;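 also: firefly luciferase made from a UUG start codon reports start codon fidelity; reporter light over untreated wells divided by growth signal over untreated wells; some hits fall short of that in this replicate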
ERp5 inh: inhibitors of human ERp5. Q15084. ERp5 insulin aggregation, absorbance 650 nm, 90 min. inhibition, % at 9.99 µM. actives 0.05% (n = 350,000);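 active = mean replicate inhibition above about 25%, with every replicate also reaching it, limit read from the data, passing the limit was not always enough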
SMARCA2 activ: activators of SMARCA2 function; MG213 cells, MMTV-luciferase reporter, dexamethasone, overnight; activation, % at 9.1 µM; actives 1% (n = 370,000); AID 652017; in the data active = activation above about 7.8%;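 note: 0% = vehicle wells and 100% = reference activator wells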
NR1D1 modulator: modulators of human Rev-erb alpha DNA binding; P20393; actives 0.79% (n = 370,000); activity, % at 10 µM; Rev-erbα–FITC-DNA binding, fluorescence polarization, 90 min; AID 1259318;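 active = activity above about 14%, limit read from the data; passing the limit was not always enough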;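 note: 0% = DMSO wells with 35 nM protein and 100% = DMSO wells with 750 nM protein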
INS-1E GSIS act: primary screen for activators of insulin secretion dependent on glucose, INS-1E cells, GLuc reporter luminescence. actives 0.61% (n = 370,000). INS-1E GLuc reporter insulin secretion, 2-3 h. activation, % at 16.6 µM;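 active = lowest replicate activation of at least 40%, so every replicate reaches that level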;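 note: 0% = median of neutral control wells and 100% = median of IBMX positive control wells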
Rev-erbA confirm: confirmation of modulators of human Rev-erb alpha DNA binding; shares compounds with NR1D1 modulator; Rev-erb alpha FITC-DNA binding, fluorescence polarization, 90 min; activation, % at 25 µM; actives 61% (n = 3,000);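 active = activation at or above a set limit, or at least 3 SD above the negative control mean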;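 note: 0% = 35 nM protein with DMSO and 100% = 750 nM protein high control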
RORg DNA counter: counter-screen for Rev-erb alpha modulators: RORgamma DNA binding; IC50, µM; purified RORgamma protein-FITC-DNA binding, fluorescence polarization; AID 1259320; shares compounds with NR1D1 modulator; actives 8% (n = 910);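 active = Compounds whose fitted half-maximal concentration for disrupting protein-DNA binding is below 10 micromolar; the record names Rev-erb in its text, so the target is in doubt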
* marks the source's active call; other numbers are inactive results; / = not tested or not shown. Shown are actives, neighbours in structure and some others; about 2.1% of the full set was active somewhere.

SMILES | PDI inh | Yeast UUG start | ERp5 inh | SMARCA2 activ | NR1D1 modulator | INS-1E GSIS act | Rev-erbA confirm | others
CC(C)(C)c1nc(SCC(=O)Nc2ccc(N3CCOCC3)cc2)c2ccccc2n1 | 2 | -13 | / | 0 | 53* | -26 | 17*
CC(C)(C)c1nc(SCC(=O)Nc2ccc3c(c2)OCCO3)c2ccccc2n1 | 14 | -15 | 4 | -1 | 73* | -9 | 35* | RORg DNA counter=3*
O=C(CSc1ccccc1)Nc1ccc2c(c1)OCCO2 | -3 | -22 | 18 | 2 | -7 | -20 | /
CCOc1ccc(NC(=O)CSc2nc(C3CC3)nc3ccccc23)cc1 | -6 | -13 | 6 | 0 | 129* | 3 | 59* | RORg DNA counter=>40
CC(=O)N(C)C[C@@H]1Oc2ncc(C#CCC3CCCC3)cc2C(=O)N([C@H](C)CO)C[C@H]1C | / | -12 | 2 | / | / | -5 | /
C/C(=N\NC(=O)COc1cccc(C)c1)c1ccc2ccccc2c1O | -4 | -14 | 0 | -2 | 217* | / | 165* | RORg DNA counter=>40
COc1ccc2cc(/C=N/NC(=O)CN(c3ccccc3C)S(=O)(=O)c3ccccc3)c(Cl)nc2c1 | -9 | 5 | 6 | 2 | 29* | -2 | 8
Cc1cc(-c2nc3cccnc3s2)ccc1NS(=O)(=O)c1ccc2c(c1)OCCO2 | / | -11 | 5 | 0 | 25* | 10 | -4
C[C@H]1CN([C@@H](C)CO)C(=O)c2cc(C#CCN(C)C)cnc2O[C@H]1CN(C)Cc1ccccc1 | / | -3 | 3 | / | / | 11 | /
OCc1cn(-c2ccccc2)nc1-c1ccc(-c2nn(-c3ccccc3)cc2CO)cc1 | -2 | -15 | / | 5 | 16* | 19 | 8
COc1ccc(CCn2c(-c3ccc(OC)cc3)nc3c(c(=O)c4ccccc4n3C)c2=O)cc1 | -6 | / | 1 | -5 | 50* | 12 | 31* | RORg DNA counter=>40
COCCn1c(-c2ccc(Cl)cc2Cl)nc2c(c(=O)c3ccccc3n2C)c1=O | -6 | / | -4 | -3 | 65* | 31 | 23*
Cc1nc2c(c(=O)c3ccccc3n2C)c(=O)n1-c1ccc(F)cc1 | -1 | / | 4 | 5 | -5 | / | /
COCCn1c(-c2ccc(C)cc2)nc2c(c(=O)c3ccccc3n2C)c1=O | -7 | / | 1 | 1 | -3 | 11 | /
Cc1cccc(-c2nc3c(c(=O)c4ccccc4n3C)c(=O)n2-c2ccccc2)c1 | 2 | / | 4 | -5 | 40* | 5 | 29*
Cc1ccc(-c2nc3c(c(=O)c4ccccc4n3C)c(=O)n2-c2ccccc2)cc1 | 8 | / | / | -2 | 26* | 12 | 19*
C[C@@H]1CN([C@H](C)CO)C(=O)c2cc(NS(=O)(=O)c3cn(C)cn3)ccc2O[C@@H](C)CCCCO[C@@H]1CN(C)S(=O)(=O)c1ccccc1 | / | 5 | 2 | / | / | 8 | /
COc1ccc(-n2c3c(cc(C(=O)Nc4cccc(C)n4)c2=O)C(=O)CC(C)(C)C3)cc1 | -7 | / | 6 | -3 | 33* | 0 | 14
C[C@@H]1CCn2nncc2COC[C@H]2CCCN2C1=O | / | / | / | / | / | -4 | /
CS(=O)(=O)c1ccc(Cl)c(NC(=O)CSc2nnc(C3CC3)n2C2CC2)c1 | 3 | -17 | 7 | 4 | 17* | 7 | 0
CS(=O)(=O)NCCNc1cc(Cl)ccc1[N+](=O)[O-] | -1 | 14 | 7 | -2 | 17* | -1 | 6
CS(=O)(=O)NCCNc1ccc(Cl)cc1[N+](=O)[O-] | 18 | / | 1 | -1 | 8 | -4 | /
CCCCCCSc1ccc(-c2nc3cnccn3c2NCCCC)cc1 | -21 | 7 | 6 | -1 | 25* | -32 | 14
CCCCNc1c(-c2ccc(Sc3ccc(OC)cc3)cc2)nc2cc(C)ccn12 | 0 | -19 | 3 | 0 | 21* | 9 | 11

Ordered by length of the SMILES (rising): some entries from above
SMILES | PDI inh | Yeast UUG start | ERp5 inh | SMARCA2 activ | NR1D1 modulator | INS-1E GSIS act | Rev-erbA confirm | others
CS(=O)(=O)c1ccc(Cl)c(NC(=O)CSc2nnc(C3CC3)n2C2CC2)c1 | 3 | -17 | 7 | 4 | 17* | 7 | 0
Cc1ccc(-c2nc3c(c(=O)c4ccccc4n3C)c(=O)n2-c2ccccc2)cc1 | 8 | / | / | -2 | 26* | 12 | 19*
COc1ccc2cc(/C=N/NC(=O)CN(c3ccccc3C)S(=O)(=O)c3ccccc3)c(Cl)nc2c1 | -9 | 5 | 6 | 2 | 29* | -2 | 8

(continued)
SMILES | PDI inh | Yeast UUG start | ERp5 inh | SMARCA2 activ | NR1D1 modulator | INS-1E GSIS act | Rev-erbA confirm | others
C[C@@H]1CN([C@@H](C)CO)C(=O)Cc2cc(NC(=O)CCC(F)(F)F)ccc2O[C@H]1CN(C)C(=O)Nc1ccccc1 | / | -12 | 6 | / | / | 7 | /
CCC(=O)Nc1ccc2c(c1)C(=O)N(C)C[C@H](OC)[C@@H](C)CN(Cc1ccccc1F)[C@H](C)CO2 | / | -7 | -1 | / | / | -26 | /
CCNC(=O)C[C@H]1CC[C@H]2[C@H](COc3ccc(NC(=O)Nc4cccc(Cl)c4)cc3C(=O)N2C)O1 | / | -17 | 17 | / | / | -3 | /
CCOC(=O)c1oc2ccccc2c1NC(=O)COc1cccc(OC)c1 | -9 | -7 | 0 | -3 | 23* | / | 4
CCOC(=O)c1oc2ccccc2c1NC(=O)c1ccccc1OC | 1 | / | -2 | 1 | -2 | / | /
COc1ccccc1OC(C)C(=O)Nc1nc(-c2ccc(S(=O)(=O)N3CCOCC3)cc2)cs1 (stereo not drawn) | 6 | -14 | / | -2 | 5 | / | /
COc1ccccc1C(=O)Nc1nc(-c2ccc(S(=O)(=O)N3CCOCC3)cc2)cs1 | -15 | -10 | / | -7 | 43* | / | 29*
C[C@@H]1CCCCO[C@@H](CN(C)Cc2ccc(Cl)c(Cl)c2)[C@H](C)CN([C@H](C)CO)C(=O)c2cc(NC(=O)C3CCCCC3)ccc2O1 | / | 9 | -1 | / | / | -16 | /
O=S(=O)(NCC[C@@H]1CC[C@H](NS(=O)(=O)c2ccccc2Cl)[C@H](CO)O1)c1ccc(F)cc1 | / | 11 | 2 | / | / | -3 | /
Cc1nc(N2CCN(c3ccccn3)CC2)c2c(C)c(C(=O)N3CCN(c4cccc(Cl)c4)CC3)sc2n1 | 3 | -3 | 7 | -3 | 73* | -11 | 50* | RORg DNA counter=>40
Cc1c(C(=O)N2CCN(c3ccccn3)CC2)sc2ncnc(N3CCN(c4ccccc4)CC3)c12 | -6 | 13 | / | -1 | 0 | / | /
Cc1nc(N2CCN(c3ccccn3)CC2)c2c(C)c(C(=O)Nc3ccc(F)cc3Cl)sc2n1 | -2 | 13 | 2 | -3 | 34* | 1 | 20*

Reprinted from the part before: 4 entries, then new ones.
SMILES | PDI inh | Yeast UUG start | ERp5 inh | SMARCA2 activ | NR1D1 modulator | INS-1E GSIS act | Rev-erbA confirm | others
O=S(=O)(NCC[C@@H]1CC[C@H](NS(=O)(=O)c2ccccc2Cl)[C@H](CO)O1)c1ccc(F)cc1 | / | 11 | 2 | / | / | -3 | /
Cc1nc(N2CCN(c3ccccn3)CC2)c2c(C)c(C(=O)N3CCN(c4cccc(Cl)c4)CC3)sc2n1 | 3 | -3 | 7 | -3 | 73* | -11 | 50* | RORg DNA counter=>40
Cc1c(C(=O)N2CCN(c3ccccn3)CC2)sc2ncnc(N3CCN(c4ccccc4)CC3)c12 | -6 | 13 | / | -1 | 0 | / | /
Cc1nc(N2CCN(c3ccccn3)CC2)c2c(C)c(C(=O)Nc3ccc(F)cc3Cl)sc2n1 | -2 | 13 | 2 | -3 | 34* | 1 | 20*
CCc1ccc(NC(=O)c2sc3nc(C)nc(N4CCN(c5ccccn5)CC4)c3c2C)cc1 | -41 | 0 | 3 | -2 | 28* | 21 | 21*
Cc1nc(N2CCN(c3ccccn3)CC2)c2c(C)c(C(=O)Nc3ccc(F)cc3F)sc2n1 | 15 | -6 | 3 | 2 | 4 | 0 | /
C[C@H]1CN([C@@H](C)CO)C(=O)c2cc(C3=CCCC3)cnc2O[C@@H]1CN(C)C(=O)CN1CCOCC1 | / | 17 | 3 | / | / | 6 | /
O=C(Nc1cccc(C(F)(F)F)c1)c1cc(Br)cc2c1OCC2 | 0 | / | 8 | -1 | 28* | / | 31* | RORg DNA counter=4.5*
O=C(CSc1nnc2ccc(-c3ccccn3)nn12)Nc1cccc(F)c1 | -5 | 12 | 3 | -5 | 22* | 6 | 16*
COc1ccc(C(=O)CSc2nnc3ccc(-c4ccccn4)nn23)cc1 | -5 | -6 | -8 | -3 | 52* | 13 | 19*
